Here are results for 1 molecule from US20100322948A1, “Bone morphogenetic protein (BMP)-binding domains of proteins of the repulsive guidance molecule (RGM) protein family and functional fragments thereof, and use of same” (ABBOTT GMBH & CO. KG, priority 2007, published 2010).

For this experiment, the system named is BMP signalling (rhBMP-2-induced luciferase activity). In words: BRE-Luc assay on BMP signalling in BMP-responsive C3H10-B12 cells. As to conditions: rhBMP-2 from 0 to 50 ng/ml, FIG. 9. It counts as cell-based. On the procedure:
Evaluation of the Agonistic or Antagonistic Effect of h RMG A on BMP Signalling using BRE-Luc Assay
a) Materials: • Three compounds were provided at 200 μg/ml.
fragment #788 (IgK/hRGM A 47-422/Xa cleavage site/Fc) • recombinant h BMP-2 (from CHO cells; #355-BM) and monoclonal anti-human BMP2/4 antibodies (#MAB3552) were obtained from R&D Systems Europe, Lille, France • Bright-Glo Luciferase assay kit were purchased from Promega
BMP-responsive C3H10-B12 (Logeart-Avramoglou D, Bourguignon M, Oudina K, Ten Dijke P, Petite H. An assay for the determination of biologically active bone morphogenetic proteins using cells transfected with an inhibitor of differentiation promoter-luciferase construct. Anal Biochem 2006;349:78-86) were plated in 96-wells plates at a density of 4×10^4 cells/cm^2 and cultured in BME (BME=Eagle's Basal Medium) (supplemented with 10% FBS), in a humidified, 37° C., 5% CO2/95% air environment for 24 h. Cells were rinsed twice with PBS and cultured under BME/0.5% (w/v) BSA containing either each AS compounds tested or anti-human BMP2/4 antibodies (from 0.01 to 10,000 ng/ml) without or with rhBMP-2 (at 50 ng/ml) for 24 h before being assayed for the contained luciferase activity. All experiments were performed in triplicate, and were repeated at two separate times.

B1: Recombinant human BMP-2 (ligand, UniProt P12643 283-396, looked up)
chain: QAKHKQRKRLKSSCKRHPLYVDFSDVGWNDWIVAPPGYHAFYCHGECPFPLADHLNSTNHAIVQTLVNSVNSKIPKACCVPTELSAISMLYLDENEKVVLKNYQDMVVEGCGCR
notes: Bought protein; also called rhBMP-2; recombinant h BMP-2
Turning to B1, the luciferase activity response entry was “dose-dependent response”.
